Measurements published in US12465594B2 (Brown University, priority 2018, dated 2025).

Sequences of proteins named here, by UniProt entry; tags and fusion partners are left off. A change or cut given only in a name is not applied to a line headed by its entry. A line that says so, or that is headed by a name, gives the form on record, which may keep a tag or linker.
HEK293 cells expressing FLAG-CRFBP(10 kD)-HA-CRF2α (Homo sapiens, UniProt P24387+Q13324), UniProt P24387+Q13324, fused: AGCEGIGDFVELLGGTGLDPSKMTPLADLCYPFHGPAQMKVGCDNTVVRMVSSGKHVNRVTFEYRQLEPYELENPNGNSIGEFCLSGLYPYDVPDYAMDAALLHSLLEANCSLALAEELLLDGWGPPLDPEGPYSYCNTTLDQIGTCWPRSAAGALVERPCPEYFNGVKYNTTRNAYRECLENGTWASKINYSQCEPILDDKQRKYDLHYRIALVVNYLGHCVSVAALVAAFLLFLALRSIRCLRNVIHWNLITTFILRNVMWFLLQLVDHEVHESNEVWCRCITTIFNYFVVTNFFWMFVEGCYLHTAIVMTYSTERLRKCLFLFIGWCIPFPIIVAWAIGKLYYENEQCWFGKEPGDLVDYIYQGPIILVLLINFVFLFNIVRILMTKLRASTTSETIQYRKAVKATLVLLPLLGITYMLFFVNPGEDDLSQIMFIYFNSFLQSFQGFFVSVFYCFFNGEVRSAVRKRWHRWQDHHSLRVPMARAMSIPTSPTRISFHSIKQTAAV
UniProt P24387: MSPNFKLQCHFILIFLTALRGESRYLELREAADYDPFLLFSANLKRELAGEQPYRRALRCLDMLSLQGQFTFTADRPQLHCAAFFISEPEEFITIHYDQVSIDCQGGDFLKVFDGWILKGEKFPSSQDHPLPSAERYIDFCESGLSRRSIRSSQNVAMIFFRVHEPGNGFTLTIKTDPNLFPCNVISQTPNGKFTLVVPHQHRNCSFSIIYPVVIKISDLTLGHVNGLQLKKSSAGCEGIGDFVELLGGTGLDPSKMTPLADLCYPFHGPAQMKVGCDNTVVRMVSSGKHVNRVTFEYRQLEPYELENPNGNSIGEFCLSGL
UniProt Q13324: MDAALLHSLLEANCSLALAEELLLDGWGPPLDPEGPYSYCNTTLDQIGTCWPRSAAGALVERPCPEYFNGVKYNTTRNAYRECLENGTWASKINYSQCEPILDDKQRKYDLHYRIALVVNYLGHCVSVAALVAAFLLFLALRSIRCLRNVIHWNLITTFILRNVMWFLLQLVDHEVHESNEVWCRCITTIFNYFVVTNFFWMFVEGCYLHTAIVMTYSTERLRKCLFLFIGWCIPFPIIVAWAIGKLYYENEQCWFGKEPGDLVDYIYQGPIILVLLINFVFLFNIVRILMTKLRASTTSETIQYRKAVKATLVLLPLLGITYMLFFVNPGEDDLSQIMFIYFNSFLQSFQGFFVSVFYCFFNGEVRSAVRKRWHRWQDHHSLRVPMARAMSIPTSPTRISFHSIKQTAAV

Biological target: HEK293 cells expressing FLAG-CRFBP(10 kD)-HA-CRF2α (Homo sapiens, UniProt P24387+Q13324)
Conditions: read-out: IC50, inhibition of CRF-induced intracellular calcium release; CRF 1 μM, 384-well (FIG. 2B legend)

antisauvagine 30 [AS-30]
IC50: 0.017 ± 0.001 µM
